The text below walks through data of PubChem BioAssay (NCI).

Molecules are shown by their SMILES. Only a part is listed here, and it is no random draw.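 Compound tested at a single concentration for 48 hours in 96-well plates; a percent growth value below 10 was scored as active.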 Activity calls are given as the source filed them.

Assay in all cases: NCI-60 one-dose screen, 48 h (100 = growth as untreated, 0 = no growth, -100 = all killed)
The subject of assay [1] is DU-145 prostate. To be noted: 10 µM unless noted.
For assay [2], the system named is K-562 leukemia. The following applies: 10 µM unless noted.
Assay [3] deals with MALME-3M melanoma. The following applies: 10 µM unless noted.
For assay [4], the system named is MDA-MB-231 breast. To be noted: 10 µM unless noted.
The subject of assay [5] is RXF 393 renal. To be noted: 10 µM unless noted.
Assay [6] has as its system SF-268 CNS. To be noted: 10 µM unless noted.
The test system of assay [7] is SF-295 CNS. To be noted: 10 µM unless noted.
Assay [8] has as its system SF-539 CNS. The following applies: 10 µM unless noted.
The subject of assay [9] is UACC-257 melanoma. The following applies: 10 µM unless noted.
For assay [10], the system named is M14 melanoma. To be noted: 10 µM unless noted.
Assay [11] concerns HCT-15 colon. To be noted: 10 µM unless noted.
In assay [12] the test system is HT29 colon. The following applies: 10 µM unless noted.
Assay [13] relates to SNB-75 CNS. To be noted: 10 µM unless noted.
In assay [14] the test system is SNB-19 CNS. The following applies: 10 µM unless noted.
In assay [15] the test system is PC-3 prostate. The following applies: 10 µM unless noted.
Assay [16] relates to SK-MEL-5 melanoma. To be noted: 10 µM unless noted.
Assay [17] deals with UACC-62 melanoma. To be noted: 10 µM unless noted.
The test system of assay [18] is LOX IMVI melanoma. The following applies: 10 µM.
Assay [19] deals with SK-MEL-28 melanoma. The following applies: 10 µM unless noted.
Assay [20] has as its system U251 CNS. The following applies: 10 µM unless noted.

Turning to `c1cc(-c2nn[nH]n2)ccc1-c1nn[nH]n1`, the growth was inactive: 115% in assay [1]; inactive: 115% in assay [2]; inactive: 92% in assay [3]; inactive: 102% in [4]; inactive: 104% in [5]; inactive: 103% in [6]. Moreover, the growth in [7] is inactive: 96.7%; in [8] it was inactive: 109%; in assay [9], inactive: 92.8%; in assay [10], inactive: 103%; in assay [11], inactive: 99.4%; in [12], inactive: 110%. The growth in [13] is inactive: 86.9%; in assay [14] it was inactive: 97.2%; in assay [15] it was inactive: 91.1%; in assay [16] it was inactive: 94.8%; in assay [17], inactive: 95.2%; in assay [18], inactive: 97.6%. Besides, in assay [19], the growth was inactive: 97%.
Turning to `CC(=O)Nc1ccc([As](=O)(O)O)cc1`, the growth is inactive: 122% in assay [1]; inactive: 109% in assay [2]; inactive: 97.5% in assay [3]; inactive: 93% in assay [4]; inactive: 109% in assay [5]; inactive: 104% in assay [6]. The growth in [7] is inactive: 97.6%; in [8], inactive: 98.4%; in [9], inactive: 96.8%; in assay [10] it was inactive: 94.1%; in assay [11], inactive: 96.9%; in [12], inactive: 109%. For the same compound, the growth was inactive: 90.4% in assay [13]; inactive: 106% in [20]; inactive: 99% in [15]; inactive: 108% in assay [16]; inactive: 94.3% in [17]; inactive: 102% in [18]. In [19], the growth is inactive: 118%.
For `CCc1cc(O)c([N+](=O)[O-])c(C)c1[N+](=O)[O-]`, the growth in assay [1] is inactive: 112%; in assay [2], inactive: 120%; in assay [3] it was inactive: 111%; in [4], inactive: 107%; in [5], inactive: 113%; in assay [6], inactive: 106%. The growth in assay [7] is inactive: 109%; in assay [8], inactive: 108%; in assay [9] it was inactive: 97.5%; in assay [10], inactive: 107%; in [11], inactive: 106%; in assay [12] it was inactive: 110%. The growth is inactive: 99.5% in [13]; inactive: 110% in [14]; inactive: 104% in [20]; inactive: 97.5% in assay [15]; inactive: 105% in [17]; inactive: 104% in assay [18]. For the same compound, in assay [19], the growth was inactive: 121%.
Turning to `COc1cc([N+](=O)[O-])c(Nc2ccc(Cl)cc2[N+](=O)[O-])c([N+](=O)[O-])c1`, the growth in [1] is inactive: 34.9%; in [2], inactive: 46.1%; in assay [3], inactive: 81.4%; in [4] it was inactive: 83.3%; in [5], inactive: 13.1%; in assay [6], inactive: 80.5%. Besides, the growth in assay [7] is inactive: 75.7%; in assay [8], inactive: 64.8%; in [9], inactive: 71.2%; in [10], inactive: 82.4%; in assay [11] it was inactive: 30.3%; in assay [12] it was inactive: 48.5%. Further, the growth in [13] was inactive: 63.9%; in assay [14], inactive: 89.1%; in [20] it was inactive: 70.6%; in assay [15] it was inactive: 57.6%; in [16], inactive: 74.2%; in [17], inactive: 59.7%. The growth was inactive: 40.7% in assay [18] and inactive: 98.7% in [19].
For `O=c1ccc(Oc2ccc([N+](=O)[O-])cc2[N+](=O)[O-])nn1-c1ccc([N+](=O)[O-])cc1[N+](=O)[O-]`, the growth was inactive: 74% in assay [1]; active: -19.1% in assay [2]; active: -63.1% in [3]; active: -80.1% in [4]; inactive: 75.5% in assay [5]; inactive: 73.5% in [6]. For the same compound, the growth was inactive: 90.7% in assay [7]; inactive: 16.3% in assay [8]; inactive: 49.6% in assay [9]; inactive: 76% in assay [10]; active: -68.8% in [11]; active: -65% in assay [12]. Moreover, the growth in assay [13] was inactive: 73.9%; in assay [14] it was inactive: 93.8%; in [20] it was active: -93.3%; in [15], inactive: 49.6%; in assay [16], inactive: 68.4%; in assay [18], active: -85.4%. Moreover, in [19], the growth is inactive: 27.6%.
For `Nc1ccc([As](=O)(O)c2ccc(N)cc2)cc1`, the growth in assay [1] is inactive: 111%; in assay [2] it was inactive: 123%; in assay [3], inactive: 109%; in [4], inactive: 107%; in [5], inactive: 83.2%; in assay [6], inactive: 98.2%. Further, the growth in assay [7] was inactive: 105%; in [8], inactive: 98.8%; in assay [9], inactive: 78.7%; in [10], inactive: 101%; in assay [11] it was inactive: 107%; in assay [12], inactive: 99.5%. Further, the growth in assay [13] was inactive: 89.2%; in assay [14], inactive: 91.6%; in [20], inactive: 83.9%; in assay [15] it was inactive: 86%; in [16], inactive: 105%; in assay [17], inactive: 96.6%. The growth was inactive: 84.4% in assay [18] and inactive: 111% in assay [19].
Take `ClCCN(CCc1ccccc1)Cc1ccccc1`: the growth in [1] was inactive: 109%; in [2] it was inactive: 89.9%; in [3], inactive: 105%; in assay [4], inactive: 112%; in [5], inactive: 105%; in [6], inactive: 101%. Also, the growth in assay [7] is inactive: 101%; in [8] it was inactive: 95.1%; in assay [9], inactive: 90.7%; in assay [10], inactive: 103%; in assay [11] it was inactive: 100%; in assay [12], inactive: 93.8%. For the same compound, the growth was inactive: 102% in assay [13]; inactive: 107% in assay [14]; inactive: 91.8% in assay [20]; inactive: 92.6% in [15]; inactive: 99% in [16]; inactive: 99.5% in assay [17]. In addition, the values for the growth in assay [18] and in assay [19] were inactive: 95.1% and inactive: 109%, respectively.
